# Reference: patent US20130274212A1, “Sesterterpene Compounds and Use Thereof” (SNU R&DB FOUNDATION, priority 2010, published 2013)
# How the values were obtained:
# [1] = system: BKS.Cg-+Lepr^db/+Lepr^db (db/db) mice; assay: Anti-diabetic efficacy in db/db mice (blood sugar, insulin, adiponectin, glucose and insulin tolerance)
# Protocol: In the present example, in order to verify efficacy to prevent and treat diabetes of the compound of Chemical Formula I (CMDD-X or Compound 7) according to the present invention, BKS.Cg-+Lepr^db/+Lepr^db (db/db) mice as an insulin-independent diabetes animal model and general mice (C57BL/6J) fed with high-fat feedstuff were used. After the disease animal model was orally administered with CMDD-X, the diabetes-related index between the administered group and the control group was measured to verify the efficacy as an agent for preventing and treating diabetes. BKS.Cg-+Lepr^db/+Lepr^db (db/db) mice (male, 7-week old) as type 2 diabetes animal model were purchased and used. The experiment animals were adapted to a housing environment for 1 week while pellet type general diet (lab-chow) was supplied, and then divided into 2 groups of 18 mice each by randomized block design to have similar blood sugar and body weight. For general mice fed with high-fat feedstuff as another animal model, 6-week old C57BL/6J mice was purchased, and then were adapted to a lap environment for 2 weeks. After that, high-fat diet containing 35% fat diet (weight ratio, Research Diets. Co. Ltd.) was supplied for 14 weeks. The efficacy to prevent and treat diabetes by CMDD-X was observed through oral administration. A mouse fed with only 0.5% carboxylmethyl cellulose, as a medicine delivery, was used as a negative control group. The medicine was orally administered to the db/db mice for 4 weeks, a total of 28 days, and to the C57BL/6J mice, which was fed with the high-fat diet, for the last 6 weeks, at a dose of 10 mg/kg/day. The experiment animals after administration were fasted for 15 hours before autopsy, and then the blood taken from the orbital venous treated with heparin. After that, the plasma was separated by centrifugation of 1,000×g at 4° C. for 15 minutes, and then refrigerated at −70° C. until analysis was conducted to measure the insulin and Adiponectin concentrations. The pancreatic tissue was fixed in 10% formaldehyde solution containing PBS. The other organ tissues were rapidly cooled in the liquid nitrogen immediately after removal thereof, and kept at −70° C. and then analyzed. T-test was conducted with respect to the control group and the administered group, a significant difference of less than 5% (P<0.05) was determined as having have a statistical significance.
# In order to measure the blood sugar reduction efficacy of the compound of Chemical Formula I (CMDD-X or Compound 7), the blood was collected through tail veins of the db/db mice before experiment ending, after feeding, and after stomach was empty for 15 hours, and the blood sugar was measured by using a glucose oxidase method. After food intake, the blood sugar of the CMDD-X-administered group was lower than that of the control group by 23.6%, and the blood sugar at the time of an empty stomach was reduced by about 26.3% (FIG. 4). In the Compound 7-administered group, the blood sugar after food intake and the blood sugar at the time of an empty stomach were 27% and 28%, respectively.
# The insulin and adiponectin concentrations of the plasma, obtained from the orbital venous of the db/db mice orally administered with CMDD-X (or Compound 7) for 4 weeks, were measured by using an Elisa Kit.
# On the end day of the experiment, the db/db mice were fasted for 15 hours, and then intraperitoneally administered with a glucose solution of 1 g per 1 kg body weight. The blood was collected from the tails of the db/db mice according to the time. The results of measurement of blood sugar by the times of the CMDD-X-administered group and the control group were shown in FIG. 8. […] Whereas, in the control group, the glucose sugar level was not recovered to a level before glucose administration even at 120 minutes. […] The final blood sugar of the CMDD-X-administered group was decreased as compared with the control group by 57%. […]
# [2] = system: C57BL/6 mice administered with MPTP; assay: MPTP-induced Parkinson's disease mice, Rotarod exercise capacity; details: oral 5 mg/kg once per day for 5 days before MPTP 25 mg/kg; measured after 3 days
# Description: In the present example, in order to verify efficacy to prevent and treat Parkinson's Disease of the compound of Chemical Formula I according to the present invention in the Parkinson's Disease as one of neurodegenerative diseases, mice administered with 1-methyl-4-phenyl-1,2,3,6-tetrahydropyridine (MPTP) were used. The efficacy to prevent and treat the Parkinson's Disease was verified by administering the compound of Chemical Formula I (CMDD-X or Compound 7) to a Parkinson's Disease-induced disease model and then measuring exercise capacity of the mice. C57BL/6 mice (male, 12-week old) were used. The mice were adapted to a housing environment for 1 week while pellet type general diet was supplied, and then divided into 3 groups of 5 mice each to have similar body weights. Before MPTP administration, the compound CMDD-X was orally administered at a concentration of 5 mg/kg. After 3 hours, probenecid as MPTP efflux inhibitor was intraperitoneally administered to the mice at a concentration of 250 mg/kg, and, after 2 hours, 25 mg/kg of MPTP was intraperitoneally administered. Administration was conducted once per one day for a total of 5 days, and, after 3 days, exercise capacity of the mice was measured by using the Rotarod. […]
# [3] = system: various nuclear receptors (RXR, PPAR, PXR, CAR, ER, LRH-1, GR, NGFI-B, ERR, Rev-erb, GCNF, TR, HNF4, COUP, EAR, VDR, AR, DAX-1, TLX, and VDR); assay: Selectivity: activity on various other nuclear receptors, same reporter method; details: CV-1 cells, same method as Nurr1
# Protocol: Animal cell line CV-1 was used in transfection search. Cells were cultured in DMEM medium within a cell incubator containing 5% carbon dioxide at 37° C. The medium contained 10% fetal bovine serum (FBS), 100 U/ml penicillin, and 100 μg/ml streptomycin. On day 1 of the experiment, CV1 cells were seeded in a 96-well plate at 5,000 cells/well. On day 2, the seeded cells were transfected with plasmid expressing GAL-mNurr1, plasmid expressing luciferase gene, and plasmid expressing β-galactosidase by using a transfection reagent, Superfect (QIAGEN). After 16 hours, the transfected cells were treated with compounds of Chemical Formula I dissolved in dimethylsulfoxide (DMSO) by the concentrations. Cells treated with dimethylsulfoxide having the final concentration of 1% were used as a negative control group. After culturing for 24 hours, the cells were lysed by using a lysis buffer, and luciferin was added thereto to measure the luciferase activity by a luminometer. After addition of an ONPG reagent, β-galactosidase activity was measured by an ELISA reader. The measured luciferase value was corrected by the activity value of β-galactosidase. […] Accordingly, it was verified that the compounds of Chemical Formula I were compounds selective to Nurr1.
compound,measurement,setting,value
CC(C)=CCC/C(C)=C/[C@@H]1CC(C)=C[C@]2(C=C(CO)[C@H]3CC(=O)C(C)=C[C@H]3O2)O1,glucose tolerance: blood sugar level after glucose administration,[1]; glucose 1 g/kg intraperitoneally after 15 hours fasting,significantly decreased at 120 minutes
same,insulin tolerance test: blood sugar after insulin administration,[1]; insulin 3 unit/kg,significantly decreased as compared with the control group for 40 minutes after insulin administration
same,insulin tolerance test: final blood sugar decreased as compared with the control group,[1]; insulin 3 unit/kg,57%
same,"blood sugar after food intake, lower than that of the control group","[1]; oral 10 mg/kg/day, 4 weeks",23.6%
same,"blood sugar at the time of an empty stomach, reduction","[1]; oral 10 mg/kg/day, 4 weeks, fasted 15 hours",about 26.3%
same,Adiponectin polymer in plasma,"[1]; oral 10 mg/kg/day, 4 weeks, p<0.01",statistically significant increase
same,total amount of Adiponectin in plasma,"[1]; oral 10 mg/kg/day, 4 weeks, p<0.05",significantly increased
same,"blood insulin concentration, relative to that of the control group","[1]; oral 10 mg/kg/day, 4 weeks, plasma, Elisa Kit",70%
same,exercise capacity (Rotarod),[2],recovered to a similar level to normal mice
same,activity on the other nuclear receptors (selectivity),[3],never showed activity on the other nuclear receptors
